Patent US20060115815A1 (priority 2002, published 2006)

Key:
WT = test: microbe, parasite or virus in culture; assay type: cell-based, HIV-1
[1] = target: recombinant HIV-1 protease (Human immunodeficiency virus type 1 group M subtype B, UniProt P04585); test: biochemical
GS-7340 Ester Hydrolase = target: T1, GS-7340 Ester Hydrolase (Homo sapiens, UniProt P10619); test: biochemical
T1 construct: from tissue; host or cells: human peripheral blood mononuclear cells (extract and column pools)
T1 sequence (P10619 29-326 limits assumed): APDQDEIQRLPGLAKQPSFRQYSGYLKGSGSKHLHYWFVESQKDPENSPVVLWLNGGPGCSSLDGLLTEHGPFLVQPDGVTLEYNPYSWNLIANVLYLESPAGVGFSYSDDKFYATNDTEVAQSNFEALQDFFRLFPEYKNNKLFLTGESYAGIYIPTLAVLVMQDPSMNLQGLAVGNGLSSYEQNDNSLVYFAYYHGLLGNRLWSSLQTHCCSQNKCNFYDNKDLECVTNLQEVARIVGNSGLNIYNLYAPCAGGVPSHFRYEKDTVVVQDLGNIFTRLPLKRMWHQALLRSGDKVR
T1 sequence (P10619 327-480 limits assumed): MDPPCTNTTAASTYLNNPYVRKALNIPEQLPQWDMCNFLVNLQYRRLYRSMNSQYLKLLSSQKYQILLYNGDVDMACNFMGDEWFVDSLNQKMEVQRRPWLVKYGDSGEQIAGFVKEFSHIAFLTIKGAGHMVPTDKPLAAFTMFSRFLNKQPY

Question: What does the source list for `Nc1n[nH]c2ccc(CN3C(=O)N(Cc4ccccc4)C(Cc4ccccc4)C(O)C(O)C3Cc3ccccc3)cc12` (stereo not shown) [H(DMP-850), reference compound]?
Answer: EC50 (WT; read-out: Cell-based assay (MT-4) EC50 WT): 165 nM; Ki ([1]; read-out: Enzymatic assay Ki): 33 pM

Question: `COC(=O)CCC(=O)N[C@@H](C)C(=O)N[C@@H](C)C(=O)N1CCC[C@H]1C(=O)N[C@@H](C)C(=O)CCl` [MeOSuC-Ala-Ala-Pro-Ala-CMK] was tested. Which IC50 (GS-7340 Ester Hydrolase) did it give?
Answer: 200000 to 400000 nM

Question: How did the Ki ([1]; Ki (pM)) turn out when `COc1ccc(S(=O)(=O)N(CC(C)C)CC(O)C(Cc2ccc(OCP(=O)(OCc3ccccc3)OCc3ccccc3)cc2)NC(=O)OC2COC3OCCC23)cc1` (stereo not shown) [drawing 651 R1=OBn R2=OBn] was run?
Answer: 10 to 100 pM

Question: With `CC(C)CN(CC(O)C(Cc1ccc(OCP(=O)(OCc2ccccc2)OCc2ccccc2)cc1)NC(=O)OC1COC2OCCC12)S(=O)(=O)c1cccc(N)c1` (stereo not shown) as the compound, how does the Ki ([1]; Ki) read?
Answer: 10 to 100 pM

Question: How did the Ki ([1]; Ki) turn out when `CC(C)CN(CC(O)C(Cc1ccccc1)NC(=O)OC1COC2OCCC12)S(=O)(=O)c1cccc(OCP(=O)(O)O)c1` (stereo not shown) was run?
Answer: 10 to 100 pM

Question: With `CCOP(=O)(COc1ccc(CC2C(O)C(O)C(Cc3ccc(OC)cc3)N(Cc3cccnc3)C(=O)N2Cc2cccnc2)cc1)OCC` (stereo not shown) [OCH3, m-pyridine, OCH2PO3Et2] as the compound, how does the EC50 (WT; Human immunodeficiency virus 1, read-out: Cell-based assay (MT-4) EC50 WT) read?
Answer: 115 nM

Like-named read-outs stand apart in the source and are kept apart here.
